According to patent publication US6040149A, “Assay for identifying agents which act on the ceramide-activated protein kinase, kinase suppressor of ras, and methods of using said agents” (priority 1997, dated 2000):

System: Raf-1
Assay: Kinase activity of CAP kinase-treated Raf-1 toward MEK1 in vitro
Type: biochemical, human (recombinant Raf-1 and MEK1)
Protocol: FIG. 18A--Raf-1, phosphorylated by CAP kinase, has enhanced kinase activity toward MEK1.
To investigate whether Raf-1 phosphorylation by CAP kinase leads to Raf-1 activation, the kinase activity of Raf-1 was monitored using MEK1 as substrate (FIG. 18). For these studies, Raf-1 was first phosphorylated by CAP kinase for 30 min using unlabeled ATP, and then MEK1 and [g-^32 P]ATP were added to the reaction mixture.
FIG. 18A--CAP kinase was prepared from TNF-stimulated HL-60 cells (30×10^6 /incubation) as described in FIG. 17. Raf-1, immunoprecipitated with anti-Raf-1 antibody-conjugated Sepharose beads, was phosphorylated for 30 min with a gel slice containing renatured CAP kinase by incubation in Raf-1 reaction buffer without radiolabeled ATP. Control reactions (Raf) received blank gel pieces. The kinase activity of Raf-1 was then measured by phosphorylation of purified recombinant human MEK1 (0.1 mg per reaction) in 50 ml MEK1 reaction buffer [30 mM NaCl, 10 mM MgCl2, 100 mM ATP and 50 mCi [γ-^32 P]ATP. The reaction was terminated at the indicated times by the addition of laemmli buffer and boiled for 5 min. Phosphorylated MEK1 was resolved by 10% SDS-PAGE and autoradiographed. MEK1 autophosphorylation (MEK auto) was performed for 20 min in the absence of Raf-1 or CAP kinase. […]

Substance: Raf-1: recombinant human Raf-1, a Ser/Thr kinase
- Raf-1 singly expressed in Sf9 cells: substrate for / activation by CAP kinase: neither a substrate for, nor activated by, CAP kinase
